Here are results for one molecule from US9120812B2, “Pyrimidooxazocine derivatives as mTOR-inhibitors” (SANOFI, priority 2012, dated 2015).

Amino acid sequences for entries named in this document (tags omitted).
UniProt P42336, whole entry: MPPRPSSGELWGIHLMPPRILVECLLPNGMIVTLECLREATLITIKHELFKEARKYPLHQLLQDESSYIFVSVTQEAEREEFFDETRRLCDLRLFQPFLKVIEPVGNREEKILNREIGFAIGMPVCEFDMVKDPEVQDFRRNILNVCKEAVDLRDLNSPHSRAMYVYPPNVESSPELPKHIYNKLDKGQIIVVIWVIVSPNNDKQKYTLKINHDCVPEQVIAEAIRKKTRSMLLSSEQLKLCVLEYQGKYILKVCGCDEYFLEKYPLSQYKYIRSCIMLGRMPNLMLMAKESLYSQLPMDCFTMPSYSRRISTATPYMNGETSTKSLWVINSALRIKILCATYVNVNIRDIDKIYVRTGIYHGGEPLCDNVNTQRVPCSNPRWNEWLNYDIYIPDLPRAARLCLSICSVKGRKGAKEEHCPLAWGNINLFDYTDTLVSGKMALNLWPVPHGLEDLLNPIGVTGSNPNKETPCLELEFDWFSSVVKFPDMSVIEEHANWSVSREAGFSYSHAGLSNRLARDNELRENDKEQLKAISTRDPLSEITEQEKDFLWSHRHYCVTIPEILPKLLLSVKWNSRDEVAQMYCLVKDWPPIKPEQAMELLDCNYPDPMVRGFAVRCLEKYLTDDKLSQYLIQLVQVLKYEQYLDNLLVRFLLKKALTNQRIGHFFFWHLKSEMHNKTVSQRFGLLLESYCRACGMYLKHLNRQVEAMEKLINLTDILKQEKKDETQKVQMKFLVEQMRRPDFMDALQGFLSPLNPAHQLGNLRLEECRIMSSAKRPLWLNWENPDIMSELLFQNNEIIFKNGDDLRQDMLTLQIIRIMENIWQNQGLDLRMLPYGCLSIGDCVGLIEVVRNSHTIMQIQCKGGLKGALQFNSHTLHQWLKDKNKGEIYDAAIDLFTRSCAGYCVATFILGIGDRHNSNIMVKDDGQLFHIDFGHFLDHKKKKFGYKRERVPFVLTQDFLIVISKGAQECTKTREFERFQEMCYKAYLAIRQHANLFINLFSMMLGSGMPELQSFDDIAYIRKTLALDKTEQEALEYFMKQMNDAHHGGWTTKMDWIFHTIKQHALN

Test [1] deals with PI3Kα (p110α/p85α) (Homo sapiens (Human), UniProt P42336). The test is described as follows: PI3Kα enzymatic test by measuring the consumption of ATP.
In test [2] the test system is Akt-pS473 in U87MG cells. Conditions: read-out: U87 Akt-pS473 % Inhibition or IC50, nM (IC50).
In test [3] the target is mTOR (human recombinant aa mTOR 1360-2549) (Homo sapiens (Human), UniProt P42345). The test is described as follows: mTOR enzymatic test by TR-FRET (phosphorylation of GFP-4EBP1). As to conditions: read-out: mTOR IC50.
Test [4] concerns U87MG tumour cells. Description: Test of in vitro proliferation of U87MG tumour cells. In kind it is cell-based. Conditions: read-out: U87 Cell Proliferation IC50, 72 hours. The procedure: Model 4: Test of in vitro Proliferation of U87MG Tumour Cells.
The cell growth is determined with the reagent CellTiter 96 AQueous One Solution Cell Proliferation Assay from Promega (Cat. No. G3581).
A reading at T=0 (before the 72 hours of incubation) is taken, corresponding to 100% inhibition.

On to `CN1CC(C)(C)Oc2nc(N3CC4CCC(C3)O4)nc(-c3ccc(NC(=O)Nc4ccc(N5CC6CCC(C5)O6)nc4)c(F)c3)c2C1=O`, for which, in test [1], the “PI3Ka IC50” value is listed as more than 10000 nM. The IC50 stood at 29 nM in test [2], 60 nM in test [3] and 77 nM in test [4].
